Source: publication doi:10.1101/2024.10.14.618151v1 (bioRxiv, 2024)
pIC50: −log10 of the molar value.

Columns and labels:
[1] = system: PBL migration across TNF-α/IFN-γ-stimulated endothelial cells (HDBEC); conditions: for pIC50: 24 h
[2] = system: peritoneal leukocyte populations; assay: Zymosan-induced peritonitis, flow cytometry of peritoneal lavage; assay type: in vivo, mouse (C57Bl/6 J); conditions: IP with zymosan and again at 24 h, read at 48 h, three doses, n=5

| SMILES | pIC50 [1] | % inhibition of Lymphocyte trafficking (0.3nM) [1] [%] | total peritoneal F4/80high macrophage counts [2] | total peritoneal Ly6G+ neutrophil counts [2] | total peritoneal leukocyte counts (CD45+) [2] |
| --- | --- | --- | --- | --- | --- |
| CCNC(=O)[C@@H](NC(=O)[C@@H](NC(=O)[C@@H](N)CO)C(C)C)[C@@H](C)O [SVT-NH-ethyl] | 10.77 | – | – | – | – |
| CC(=O)N[C@@H](CCC(N)=O)C(=O)NCC(=O)N[C@@H](C)C(=O)O [Ac-QGA-acid] | 10.38 | 38 | no effect | to a lesser extent | only showed effects at the highest dose |
| CC(C)[C@H](NC(=O)[C@@H](N)CO)C(=O)N[C@H](C(=O)O)[C@@H](C)O [SVT-acid] | 10.34 | – | – | – | – |
| CC(C)[C@H](NC(=O)[C@@H](N)CO)C(=O)N[C@H](C(N)=O)[C@@H](C)O [SVT-NH2] | 11.00 | – | – | – | – |
